Source: PubChem BioAssay AID1903 (Southern Research Specialized Biocontainment Screening …, 2009)
About 1,200 (0.39%) of roughly 310,000 compounds were called active. All entries are inconclusive by the source's own rule. Clear calls are listed elsewhere. No rule for the calls is given here.

Amino acid sequences for entries named in this document (tags omitted).
UniProt P03070, whole entry, looked up: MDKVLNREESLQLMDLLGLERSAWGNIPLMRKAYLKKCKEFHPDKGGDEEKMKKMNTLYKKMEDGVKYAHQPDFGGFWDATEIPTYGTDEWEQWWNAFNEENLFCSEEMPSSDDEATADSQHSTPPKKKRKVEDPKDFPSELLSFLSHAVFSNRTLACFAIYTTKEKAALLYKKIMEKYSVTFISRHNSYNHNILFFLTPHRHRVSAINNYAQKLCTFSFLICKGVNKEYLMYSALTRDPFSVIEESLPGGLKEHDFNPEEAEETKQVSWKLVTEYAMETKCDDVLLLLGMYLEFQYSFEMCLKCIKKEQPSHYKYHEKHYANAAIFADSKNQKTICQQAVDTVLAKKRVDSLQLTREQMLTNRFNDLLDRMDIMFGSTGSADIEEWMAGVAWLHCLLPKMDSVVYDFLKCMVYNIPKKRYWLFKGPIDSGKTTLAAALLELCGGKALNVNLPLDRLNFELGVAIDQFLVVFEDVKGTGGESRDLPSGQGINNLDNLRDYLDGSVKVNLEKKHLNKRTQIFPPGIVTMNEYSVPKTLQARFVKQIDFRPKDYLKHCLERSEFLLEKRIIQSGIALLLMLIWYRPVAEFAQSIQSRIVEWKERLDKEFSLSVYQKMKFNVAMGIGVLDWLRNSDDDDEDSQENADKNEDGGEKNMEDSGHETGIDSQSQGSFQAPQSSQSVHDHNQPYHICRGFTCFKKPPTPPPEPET

Each compound was assayed against Large T antigen (Simian virus 40) (UniProt P03070) (assay: SV40 large T antigen inhibitors, biochemical (AID 1903)). Details: SV40 large T antigen ATPase/helicase inhibition assay; at 20 µM; hits give high values.
Nc1cccc2c([As](=O)(O)O)cccc12 was tested, and the inhibition was inconclusive: 27.9%. In the case of CS(=O)(=O)c1cc([N+](=O)[O-])c2no[n+]([O-])c2c1, the inhibition is reported as inconclusive: 96.7%. With CC(C)(C)C(=O)NC(Sc1ccncn1)C(Cl)(Cl)Cl (centres undefined) the inhibition was inconclusive: 39.2%. For C[N+]1=C2C=CC=CC=C2SC12C([N+](=O)[O-])=CC([N+](=O)[O-])=C[C-]2[N+](=O)[O-] (centres undefined), the inhibition was inconclusive: 77.7%.
